These are literature values, as cited in US20220096505A1, “PHARMACEUTICAL COMPOSITION, METHODS FOR TREATING AND USES THEREOF” (Boehringer Ingelheim International GmbH, priority 2011, published 2022).

This data set concerns SGLT. The note with it: leading to a decrease in blood glucose concentrations and to glucosuria; cited from earlier work.

As to `O=C(CCc1ccc(O)cc1)c1c(O)cc(O)cc1O[C@@H]1O[C@H](CO)[C@@H](O)[C@H](O)[C@H]1O` [phlorizin], the “effect on reuptake of glucose from the glomerular filtrate into the blood” value is on record as “partially inhibit the reuptake of glucose”.
